Source: PubChem BioAssay (Broad Institute)
UUG fidelity = alters start codon recognition fidelity in yeast. S. cerevisiae UUG-firefly luciferase reporter, luminescence/redox ratio. AID 602363. activity score, % at 18.7 µM. hit rate 0.13% among 350,000;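 active = replicate mean at a twofold rise or more, about +100% in these data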;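 note: firefly luciferase made from a UUG start codon reports start codon fidelity; reporter light over untreated wells divided by growth signal over untreated wells; some hits fall short of that in this replicate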
Glyco luc inh = N-linked glycosylation inhibition | D54 ERlucT glycosylation luciferase reporter, 24 h; percent of 100 nM tunicamycin response | reporter increase, % at 12.5 µM | actives 0.23% (n = 360,000);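 active = mean luciferase reporter signal, scaled so untreated is 0 and the glycosylation-blocking control 100, at or above a set limit in every replicate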;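 note: luciferase carries N-glycosylation sites so blocking glycosylation raises the light; 0% = median of neutral control wells and 100% = median of 100 nM tunicamycin wells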
Cneo AK release = Cryptococcus neoformans lysis via adenylate kinase release. lysis activity, % at 15 µM. actives 0.2% (n = 360,000). C. neoformans lysis, adenylate kinase release luminescence, 4 h; normalised: neutral wells 0, clomiphene wells 100;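 active = mean lysis activity across replicates of at least 80%, whatever share of replicates individually reach that level; inactive = mean lysis activity below 80%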
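Signal: Adenylate kinase release luminescence | Assay system: Log-phase Cryptococcus neoformans yeast cells | Input: Cells at 5 × 10^6 per mL | Buffer or medium: Fresh YPD growth medium | Compound: Single dose | Schedule: Static 4 h at 37 °C with compound, 1 h detection | Controls: Clomiphene | Read-out: Luminescence rise reflecting yeast cell lysis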
miR-122 sensor = inhibitors of miR-122 in Huh7 cells; Huh7 miR-122 Renilla luciferase sensor, 48 h; neutral wells = 0, positive control = 100; activation (reporter increase), % at 12.5 µM; actives 0.3% (n = 340,000); AID 602342;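 active = mean replicate activation score at least 90 and every replicate individually at or above 90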;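 note: higher luciferase means less miR-122 activity so hits act as miR-122 inhibitors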
Statin myotox sup = suppression of simvastatin myotoxicity; rescue of ATP level, % at 7.49 µM; AID 602340; C2C12 myotubes + simvastatin, ATP luminescence, 48 h; scaled: DMSO 0, geranylgeraniol control 100; actives 0.78% (n = 330,000);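 active = mean ATP rescue above about 67%, or every replicate alone reaching that limit, limit read from the data, passing the limit was not always enough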;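 note: myotubes were challenged with 10 µM simvastatin during compound exposure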
Active calls of the source: *; x = no result; [ ] = remark or other dose. In the library only some 1.2% were active in any assay of this set; here they are far more common.

SMILES	UUG fidelity	Glyco luc inh	Cneo AK release	miR-122 sensor	Statin myotox sup
CCOc1ccc(C(C)=O)cc1Cc1c(O)[nH]c(=S)[nH]c1=O	-30	0	0	-2	5
COc1ccc(C(C)=O)cc1Cc1c(O)[nH]c(=S)[nH]c1=O	-2	0	1	0	103*
O=c1[nH]c(CN2CC=C(c3ccccc3)CC2)nc2scc(-c3ccccc3)c12	x	0	x	2	-7
O=c1[nH]c(CN2CC=C(c3ccccc3)CC2)nc2cc(C(F)(F)F)ccc12	-19	9	88*	2	-1
O=C(NC1(C(F)(F)F)Oc2ccccc2O1)N1CCC2(CC1)OCCO2	-9	-5	0	3	101*
COC(=O)[C@@H]1[C@@H](CO)[C@@H]2Cn3c(ccc(-c4ccccc4)c3=O)[C@H]1N2C(=O)c1ccccc1F	x	x	x	-2[16.7 µM]	-8
N#Cc1ccc(-c2ccc([C@H]3[C@@H](CO)N4CCCCN(C(=O)Cc5ccccc5)C[C@@H]34)cc2)cc1	0	x	-3	-4[16.7 µM]	19
C=COCCn1c(C)c(C(C)=O)c2cc(O)ccc21	-19	-1	0	-3	113*
CCCNC(=O)N1[C@@H]2c3ccc(-c4ccccc4OC)c(=O)n3C[C@H]1[C@H](CO)[C@H]2C(=O)OC	x	x	1	-4[16.7 µM]	7
COC(=O)C1=C(c2ccc(OC)c(OC)c2)C[C@@H]2CC[C@H]1N2C(=O)NCCOc1ccc(OC)cc1	5	-2	0	1	121*
COC(=O)C1=C(c2ccc(OC)c(OC)c2)C[C@@H]2CC[C@H]1N2C(=O)NCCO	-14	3	-1	1	-5
COC(=O)[C@@H]1[C@@H](CO)[C@@H]2Cn3c(ccc(-c4ccncc4)c3=O)[C@H]1N2CCc1ccccc1	x	x	-5	x	-14
O=C1Nc2ccccc2/C1=C/c1cnc[nH]1	x	18	x	8	199*
COc1ccc2c(c1)/C(=C/c1cnc[nH]1)C(=O)N2	-11	14	16	9	34
COC(=O)[C@H]1[C@H](CO)[C@H]2Cn3c(ccc(-c4cccc(F)c4)c3=O)[C@@H]1N2Cc1cccnc1	x	x	-2	8[16.7 µM]	6
COc1ccc(-c2ccc([C@@H]3[C@H]4CN(C(=O)Cc5ccncc5)CCCCN4[C@H]3CO)cc2)cc1	-7	x	6	37[16.7 µM]	-7
CCCC(=O)c1c(O)[nH]c(=O)[nH]c1=O	-6	-1	-2	-8	97*
CCN(CC)C(=O)c1ccc2c(c1)C1C=CCC1C(C(=O)O)N2 (stereo not drawn)	4	0	-1	-5	125*
CCCNC(=O)N1[C@@H]2c3ccc(-c4ccccc4OC)c(=O)n3C[C@H]1[C@H](CO)[C@H]2C(=O)O	x	x	1	-4[16.7 µM]	-23
COC(=O)[C@@H]1[C@@H](CO)[C@@H]2Cn3c(ccc(-c4ccccc4F)c3=O)[C@H]1N2Cc1cccnc1	x	x	-1	-4[16.7 µM]	0
COc1cc(/C=N/NP(=S)(c2ccccc2)c2ccccc2)ccc1O	90	2	-5	0	-1
Oc1ccc(/C=N/NP(=S)(c2ccccc2)c2ccccc2)cc1	-38	1	-1	96*	1
O=C(Cc1ccccc1)N1C[C@@H]2[C@H](c3ccccc31)[C@H](CO)N2Cc1ccccc1	-10	x	-2	42[16.7 µM]	22
O=C(Cc1ccccn1)N1CCCCN2[C@@H](CO)[C@@H](c3ccc(-c4ccccc4F)cc3)[C@@H]2C1	-18	x	0	3[16.7 µM]	-13
CCC12CN3CC(CC)(CN(C1)C3c1cccnc1)C2=O (stereo not drawn)	-1	-3	0	-1	137*
CC1(C)C2([N+](=O)[O-])CN3CC1([N+](=O)[O-])CN(C2)C3c1cccnc1 (stereo not drawn)	x	0	x	0	0
CC12CN3CC(C)(CN(C1)C3c1cccnc1)C2=O (stereo not drawn)	-21	1	-3	3	123*
N#Cc1ccc(-c2ccc([C@H]3[C@H]4CN(C(=O)Cc5ccccc5)CCCCN4[C@H]3CO)cc2)cc1	-2	x	2	-8[16.7 µM]	8
Clc1cccc(N2Cc3cc(-c4ccccc4)ccc3-n3nncc3C2)c1	-3	40*	1	8	30
N#Cc1ccc(-c2ccc([C@H]3[C@@H](CO)N4CCCCN(C(=O)Cc5ccccc5)C[C@H]34)cc2)cc1	-4	x	0	-8[16.7 µM]	2

A second format for some results above:
Value order – UUG fidelity	Glyco luc inh	Cneo AK release	miR-122 sensor	Statin myotox sup
N#Cc1ccc(-c2ccc([C@H]3[C@@H](CO)N4CCCCN(C(=O)Cc5ccccc5)C[C@H]34)cc2)cc1
 : -4	x	0	-8[16.7 µM]	2
COC(=O)C1=C(c2ccc(OC)c(OC)c2)C[C@@H]2CC[C@H]1N2C(=O)NCCO
 : -14	3	-1	1	-5
N#Cc1ccc(-c2ccc([C@H]3[C@@H](CO)N4CCCCN(C(=O)Cc5ccccc5)C[C@@H]34)cc2)cc1
 : 0	x	-3	-4[16.7 µM]	19
Clc1cccc(N2Cc3cc(-c4ccccc4)ccc3-n3nncc3C2)c1
 : -3	40*	1	8	30
